Assay results published in ChEMBL document CHEMBL3352010, “Synthesis and Pharmacology of a Novel κ Opioid Receptor (KOR) Agonist with a 1,3,5-Trioxazatriquinane Skeleton” (ACS Med Chem Lett, 2014).

Sequences of proteins named here, by UniProt entry; tags and fusion partners are left off. A change or cut given only in a name is not applied to a line headed by its entry.
UniProt P41144: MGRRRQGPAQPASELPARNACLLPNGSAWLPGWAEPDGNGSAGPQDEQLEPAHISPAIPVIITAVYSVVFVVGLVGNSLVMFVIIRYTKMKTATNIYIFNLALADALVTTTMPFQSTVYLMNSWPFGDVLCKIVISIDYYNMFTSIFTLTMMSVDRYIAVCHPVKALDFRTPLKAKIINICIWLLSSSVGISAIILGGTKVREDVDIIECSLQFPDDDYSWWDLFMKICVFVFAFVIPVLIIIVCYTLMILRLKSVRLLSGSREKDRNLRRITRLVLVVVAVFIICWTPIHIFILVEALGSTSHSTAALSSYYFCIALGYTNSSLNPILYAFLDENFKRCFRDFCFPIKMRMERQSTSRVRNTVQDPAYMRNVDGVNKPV

Target: Kappa-type opioid receptor (Cavia porcellus, UniProt P41144)
Experiment: Displacement of [3H]U69593 from kappa opioid receptor in guinea pig cerebellum

## CN(C(=O)Cc1ccc(Cl)c(Cl)c1)C1CCCCC1N1CCCC1 (stereo unspecified)
  pKi: 8.78

pKi: −log10 of the molar value.
